According to ChEMBL document CHEMBL4732170, “Discovery of Small-Molecule Antagonists of the PWWP Domain of NSD2” (J Med Chem, 2021):

Target: T1, Histone-lysine N-methyltransferase NSD2 (Homo sapiens) (UniProt O96028)
T1 sequence (whole entry): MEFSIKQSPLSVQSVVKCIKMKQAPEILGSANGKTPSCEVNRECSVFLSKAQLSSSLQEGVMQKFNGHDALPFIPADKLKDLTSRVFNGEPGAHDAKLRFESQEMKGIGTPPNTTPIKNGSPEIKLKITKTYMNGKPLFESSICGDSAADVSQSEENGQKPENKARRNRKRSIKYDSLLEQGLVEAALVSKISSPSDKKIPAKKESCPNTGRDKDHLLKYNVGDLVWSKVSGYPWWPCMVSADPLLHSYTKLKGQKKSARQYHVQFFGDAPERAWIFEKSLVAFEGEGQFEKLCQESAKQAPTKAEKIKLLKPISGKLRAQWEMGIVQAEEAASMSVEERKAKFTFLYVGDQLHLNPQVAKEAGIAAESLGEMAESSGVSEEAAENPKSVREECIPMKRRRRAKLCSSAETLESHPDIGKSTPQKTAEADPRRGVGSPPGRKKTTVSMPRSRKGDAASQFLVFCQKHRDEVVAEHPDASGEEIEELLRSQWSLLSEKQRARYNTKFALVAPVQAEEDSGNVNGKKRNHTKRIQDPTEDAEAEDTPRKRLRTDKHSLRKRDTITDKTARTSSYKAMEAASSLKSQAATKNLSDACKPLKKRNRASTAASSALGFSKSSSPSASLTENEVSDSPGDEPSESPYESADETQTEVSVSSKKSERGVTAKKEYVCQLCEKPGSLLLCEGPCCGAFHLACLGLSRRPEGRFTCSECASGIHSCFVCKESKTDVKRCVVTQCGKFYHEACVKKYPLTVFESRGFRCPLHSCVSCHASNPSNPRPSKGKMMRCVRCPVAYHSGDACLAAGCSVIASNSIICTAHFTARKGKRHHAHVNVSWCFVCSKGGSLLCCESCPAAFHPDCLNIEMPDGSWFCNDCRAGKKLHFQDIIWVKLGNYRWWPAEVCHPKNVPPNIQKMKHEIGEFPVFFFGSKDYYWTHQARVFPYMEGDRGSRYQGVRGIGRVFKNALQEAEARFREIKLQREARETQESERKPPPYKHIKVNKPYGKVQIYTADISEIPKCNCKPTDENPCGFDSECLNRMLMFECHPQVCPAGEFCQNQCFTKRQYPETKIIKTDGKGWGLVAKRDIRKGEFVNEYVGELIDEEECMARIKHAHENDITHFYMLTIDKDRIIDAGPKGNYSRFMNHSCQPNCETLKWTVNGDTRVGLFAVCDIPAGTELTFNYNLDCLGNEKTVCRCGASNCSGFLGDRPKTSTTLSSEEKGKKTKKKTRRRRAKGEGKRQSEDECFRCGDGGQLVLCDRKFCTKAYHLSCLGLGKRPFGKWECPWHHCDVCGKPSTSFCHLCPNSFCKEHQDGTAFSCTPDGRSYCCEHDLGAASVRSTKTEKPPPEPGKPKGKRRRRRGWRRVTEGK
Assay: Binding affinity to NSD2 PWWP1 domain (unknown origin) assessed as change in aggregation temperature at 500 uM by heating at 25 to 85 degC by differential static light scattering method
Conditions: filed as antagonist

Structure (SMILES) | deltaT [°C]
N#Cc1ccc(C(=O)N(Cc2ccc(F)cc2)C2CC2)cc1 | 5.7
N#Cc1ccc(C(=O)N2CCCC2c2ccc(Cl)cc2)cc1 (configuration not stated) | 1.9
